# Test results as given in PMC9837035 (Nature Communications, 2023).
# “And” between values parts separate entries of the source, which are not always exact repeats. Identical values can stand only once.
# Tests used:
# [1] = biological target: T1, NSD2 (E1099K) (Homo sapiens, UniProt O96028, E1099K); assay: biochemical
# T1 sequence (O96028 1-1365 E1099K): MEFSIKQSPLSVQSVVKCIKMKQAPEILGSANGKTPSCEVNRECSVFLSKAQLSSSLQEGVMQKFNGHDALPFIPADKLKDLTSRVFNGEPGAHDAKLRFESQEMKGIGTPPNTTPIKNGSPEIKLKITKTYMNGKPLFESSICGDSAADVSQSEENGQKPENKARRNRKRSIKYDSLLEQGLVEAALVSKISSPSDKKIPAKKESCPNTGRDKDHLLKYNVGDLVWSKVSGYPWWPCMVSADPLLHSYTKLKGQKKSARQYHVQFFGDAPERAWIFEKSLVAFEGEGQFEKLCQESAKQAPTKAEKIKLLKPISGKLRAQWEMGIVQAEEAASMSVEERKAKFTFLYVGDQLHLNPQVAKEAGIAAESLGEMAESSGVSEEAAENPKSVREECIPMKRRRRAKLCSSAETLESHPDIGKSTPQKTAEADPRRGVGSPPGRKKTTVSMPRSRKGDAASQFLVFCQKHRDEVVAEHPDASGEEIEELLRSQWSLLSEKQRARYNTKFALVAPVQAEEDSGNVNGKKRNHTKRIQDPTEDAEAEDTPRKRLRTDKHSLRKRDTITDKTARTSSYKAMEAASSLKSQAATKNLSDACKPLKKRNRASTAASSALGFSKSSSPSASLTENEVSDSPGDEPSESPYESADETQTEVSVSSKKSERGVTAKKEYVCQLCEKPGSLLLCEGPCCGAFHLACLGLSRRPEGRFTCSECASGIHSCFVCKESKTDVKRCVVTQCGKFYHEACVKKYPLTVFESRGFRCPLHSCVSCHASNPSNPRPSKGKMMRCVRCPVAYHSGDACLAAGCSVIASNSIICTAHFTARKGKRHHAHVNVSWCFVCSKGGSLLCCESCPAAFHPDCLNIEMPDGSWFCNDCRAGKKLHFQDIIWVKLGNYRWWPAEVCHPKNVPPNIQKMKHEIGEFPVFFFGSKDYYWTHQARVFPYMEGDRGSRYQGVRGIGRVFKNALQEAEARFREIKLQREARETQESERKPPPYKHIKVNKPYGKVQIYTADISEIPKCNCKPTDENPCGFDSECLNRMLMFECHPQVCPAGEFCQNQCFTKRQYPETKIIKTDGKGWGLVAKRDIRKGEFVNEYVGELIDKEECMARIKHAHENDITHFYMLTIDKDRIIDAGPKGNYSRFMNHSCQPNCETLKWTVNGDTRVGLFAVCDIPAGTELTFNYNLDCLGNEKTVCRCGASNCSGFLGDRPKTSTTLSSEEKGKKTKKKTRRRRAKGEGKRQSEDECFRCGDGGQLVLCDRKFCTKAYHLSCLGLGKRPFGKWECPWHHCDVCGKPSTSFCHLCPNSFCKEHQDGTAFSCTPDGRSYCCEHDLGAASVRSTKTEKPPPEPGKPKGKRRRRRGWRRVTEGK
# [2] = test system: β- and γ-globin mRNAs in CD34+-derived cells; assay: RT-qPCR of β- and γ-globin in CD34+-derived cells; format: cell-based, human
# Procedure: (§1) HUDEP-2 cells and HiDEP-1 cells were grown in Stemline II Hematopoietic Stem Cell Expansion Medium (Sigma) supplemented with 50 ng/mL recombinant stem cell factor (SCF; R&D systems), 3 IU/mL recombinant erythropoietin (EPO; Kyowa Kirin), 1 μM dexamethasone (Dex; Sigma), and 1 μg/mL doxycycline (Sigma). A total of 1 × 10^5 human CD34^+ progenitor cells derived from bone marrow or peripheral blood (Lonza) were cultured on 35-mm dishes (BD Falcon) in StemSpan SFEMII medium with 50 ng/mL SCF, 5 IU/mL EPO, and 10 ng /mL interleukin 3 (IL-3; R&D systems). The medium was changed on day 4 to SCF, EPO, and 1 μM Dex, and the cells were transferred to 60-mm dishes (BD Falcon). Seven days after the onset of differentiation, cells were counted and 1 × 10^6 cells were re-plated on 100-mm dishes (BD Falcon) with SCF, EPO, and Dex. The rat myoblast cell line H9c2, HEK293T, and PLAT-E cells were maintained in Dulbecco’s modified Eagle’s medium (Thermo Fisher Scientific) supplemented with 10% heat-inactivated fetal bovine serum (FBS) and penicillin/streptomycin. All cells were cultured at 37 °C under 5% CO2.
# (§2) Total cellular RNA was prepared using the Tissue Total RNA Mini Kit (FAVORGEN), and cDNA was synthesized using ReverTra Ace Master Mix (TOYOBO). Expression of target genes was analyzed using THUNDERBIRD SYBR qPCR Mix (TOYOBO) on a CFX Connect Real Time System (Bio-Rad). The qPCR data were acquired on CFX Maestro (Bio-Rad). Primers are listed in Supplementary Table 10. GAPDH was used as a reference. Primers were purchased from INTEGRATED DNA TECHNOLOGIES or FASMAC.
# [3] = test system: BGLT3 RNA in HUDEP-2 cells; assay: RT-qPCR of BGLT3 in HUDEP-2 cells; format: cell-based, human; conditions: HUDEP-2, 4 days
# Procedure: as §2
# [4] = test system: BGLT3 RNA in CD34+ cells; assay: RT-qPCR of BGLT3 in CD34+ cells; format: cell-based, human
# Procedure: as §1, §2
compound,measurement,setting,value
"Nc1ncnc2c1ncn2[C@@H]1O[C@H](CSCC[C@H](N)C(=O)O)[C@@H](O)[C@H]1O [SAH, S-(5'-Adenosyl)-L-homocysteine, reference compound]",IC50,[1],6.51 µM
Cc1c(C(=O)NC(CCC2CC2)C(=O)Nc2ccc(C#N)cc2)[nH]c2c1C(=O)CC(C)(C)C2 (stereo not drawn) [RK-701],Relative expression of β-globin mRNA,"[2]; day 10, 0.03 μM",1.223 and 0.7981 and 0.7056
same,Relative expression of β-globin mRNA,"[2]; day 10, 0.3 μM",0.5093 and 0.3419 and 0.622
same,Relative expression of β-globin mRNA,"[2]; day 10, 1 μM",0.5724 and 0.4098 and 0.587
same,Relative expression of γ-globin mRNA,"[2]; day 10, 1 μM",13.541 and 15.6231 and 17.881
same,Relative expression of γ-globin mRNA,"[2]; day 10, 3 μM",10.2007 and 14.1812 and 14.9315
same,Relative expression of BGLT3 RNA,[3]; 0.03 μM,1.538 and 1.1863 and 2.024
same,Relative expression of BGLT3 RNA,[3]; 0.1 μM,1.802 and 1.732 and 2.119
same,Relative expression of BGLT3 RNA,[3]; 0.3 μM,2.469 and 1.707 and 2.074
same,Relative expression of BGLT3 RNA,[3]; 1 μM,2.525 and 1.865 and 3.156
same,Relative expression of BGLT3 RNA,[3]; 3 μM,1.6605 and 2.017 and 2.232
same,Relative expression of BGLT3 RNA,"[4]; DAY7, 0.01 μM",1.618 and 1.382 and 1.119
same,Relative expression of BGLT3 RNA,"[4]; DAY7, 0.03 μM",2.257 and 2.338 and 2.351
same,Relative expression of BGLT3 RNA,"[4]; DAY7, 0.1 μM",5.71 and 5.323 and 4.605
same,Relative expression of BGLT3 RNA,"[4]; DAY7, 0.3 μM",6.283 and 5.769 and 4.1359
same,Relative expression of BGLT3 RNA,"[4]; DAY9, 0.01 μM",1.433 and 1.1061 and 1.745
same,Relative expression of BGLT3 RNA,"[4]; DAY9, 0.03 μM",2.487 and 2.42 and 2.611
same,Relative expression of BGLT3 RNA,"[4]; DAY9, 0.1 μM",6.227 and 4.599 and 5.146
same,Relative expression of BGLT3 RNA,"[4]; DAY9, 0.3 μM",5.198 and 6.337 and 7.76
same,Relative expression of BGLT3 RNA,"[4]; DAY9, 1 μM",7.664 and 6.752 and 9.738
same,Relative expression of BGLT3 RNA,"[4]; DAY9, 3 μM",13.8033 and 7.07 and 10.6038
